For this test, the target named is T1, 17-beta-hydroxysteroid dehydrogenase type 1 (Homo sapiens) (UniProt P14061).
T1 sequence (whole entry): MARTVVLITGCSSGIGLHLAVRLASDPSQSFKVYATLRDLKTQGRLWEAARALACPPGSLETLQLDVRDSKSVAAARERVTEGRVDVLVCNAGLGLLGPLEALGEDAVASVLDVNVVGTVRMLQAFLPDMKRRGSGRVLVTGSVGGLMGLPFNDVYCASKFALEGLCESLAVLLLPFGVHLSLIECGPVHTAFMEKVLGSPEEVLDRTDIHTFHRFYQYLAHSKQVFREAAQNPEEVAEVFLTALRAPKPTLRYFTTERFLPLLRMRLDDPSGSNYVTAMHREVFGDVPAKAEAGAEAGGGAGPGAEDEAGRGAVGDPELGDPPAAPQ
Description: Inhibition of 17beta-HSD1 expressed in intact human T47D cells at 10 uM after 30 mins. Type of test: cell-based.

SMILES strings stand for the structures.

Broadly, the inhibition is how much of the control response was suppressed. Low values mean a response near the control, high ones a response far below the control.

Consider `CC(=O)c1ccc(-c2ccc(O)cc2C)cc1`, for which the inhibition was determined as 89%.

Values taken from ChEMBL document CHEMBL1144736, “Novel inhibitors of 17beta-hydroxysteroid dehydrogenase type 1: templates for design” (Bioorg Med Chem, 2008).
